Most compounds without a hit are left out; they make up all but 0.48% or so of the library.
EPAC2 antagonist: qHTS for Antagonist of cAMP-regulated guanine nucleotide exchange factor 2 (EPAC2): primary screen | Rap guanine nucleotide exchange factor 4 (Homo sapiens), Q8WZA2 | EPAC2 GEF exchange of Rap1B-BODIPY-GDP, fluorescence | Potency, µM (titrated, usually from 114 µM), actives largely listed as inhibitors | actives 0.18% (n = 360,000); note: nearly all actives have a fitted effect of over 45% in size
EPAC1 ag: qHTS for Agonist of cAMP-regulated guanine nucleotide exchange factor 3 (EPAC1): primary screen; Rap guanine nucleotide exchange factor 3 (Homo sapiens), O95398; EPAC1 agonist qHTS, biochemical assay; response scale: 100% = response to 6.5 mM cAMP; Potency, µM (titrated, usually from 154 µM), usual class: activators; actives 0.073% (n = 360,000); AID 720707, 2013; note: nearly all actives have a fitted effect of over 60% in size
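Multi-concentration qHTS readout: loss of Rap1B-bound BODIPY-GDP fluorescence driven by 100 nM EPAC1 with excess GDP (50 uM), monitored kinetically at room temperature; agonist response expressed relative to 6.5 mM cAMP.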
Rango dissoc inh: qHTS Assay for Inhibitors of RanGTP induced Rango (Ran-regulated importin-beta cargo) - Importin beta complex dissociation; Snurportin-1 (Homo sapiens) + GTP-binding nuclear protein Ran (Homo sapiens) + Importin …; Biochemical FRET Rango-importin beta, RanGTP-induced dissociation; Potency, µM (top dose mostly 46.1 µM); actives 0.071% (n = 340,000); calls by dose curve; note: nearly all actives have a fitted effect of over 45% in size
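Quantitative HTS using a FRET biosensor: 0.1 uM Rango, 0.25 uM importin beta, 0.6 uM Ran, 2 mM GTP, 0.2 uM RCC1 final, PBS with DTT, Tween-20 and BSA. Post-read taken 45 min after Ran addition.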
EPAC1 antagonist: qHTS for Antagonist of cAMP-regulated guanine nucleotide exchange factor 3 (EPAC1): primary screen. Potency, µM (titrated, usually from 115 µM), hits mostly inhibitors. actives 0.14% (n = 360,000). EPAC1 GEF assay, Rap1b-BODIPY-GDP exchange fluorescence. AID 720709, 2013. Rap guanine nucleotide exchange factor 3 (Homo sapiens), O95398; note: nearly all actives have a fitted effect of over 50% in size
Rango complex inh: qHTS Assay for Inhibitors of Rango (Ran-regulated importin-beta cargo) - Importin beta complex formation. AID 540263, 2011. Rango CFP/YFP FRET sensor + importin beta, 45 min. actives 0.031% (n = 340,000). Potency, µM (top dose mostly 92.2 µM). Importin subunit beta-1 (Homo sapiens), Q14974; calls by dose curve; note: nearly all actives have a fitted effect of over 15% in size
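FRET biosensor Rango (snurportin 1 IBB between N-terminal EYFP and C-terminal Cerulean), 50 nM in PBS/1 mM DTT/0.02% Tween-20/0.1% BSA, preincubated 5 min RT with compound; 0.125 microM importin beta added, 45 min RT, CFP/YFP FRET ratio read.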
EPAC2 agonist: qHTS for Agonist of cAMP-regulated guanine nucleotide exchange factor 4 (EPAC2): primary screen. EPAC2 activation, biochemical qHTS; response scale: 100% = 6.5 mM cAMP response. Potency, µM (highest dose often 154 µM), actives largely listed as activators. actives 0.079% (n = 360,000); note: nearly all actives have a fitted effect of over 50% in size
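EPAC2 (100 nM) mixed with Rap1B loaded with BODIPY-GDP (250 nM) plus 50 uM unlabeled GDP; compounds pinned in, 5 min RT, then read every 5 min for 30 min (ex 480, em 540 nm). Normalized to cAMP control.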
Hits are given with their value; - = inactive; ? = inconclusive; . = not tested or not shown. Unless noted, calls come from the whole dose curve; as a rule, active = well fitted curve in the direction sought with a large enough effect; inconclusive = small, poorly fitted or top-dose-only effect, or another doubt; inactive = no such curve, though single readings can be large; an effect the other way counts as inactive or inconclusive.

The chains behind the UniProt entries cited, without tags or fusion partners.
Importin subunit beta-1 (Homo sapiens), Q14974, UniProt Q14974, whole entry, looked up: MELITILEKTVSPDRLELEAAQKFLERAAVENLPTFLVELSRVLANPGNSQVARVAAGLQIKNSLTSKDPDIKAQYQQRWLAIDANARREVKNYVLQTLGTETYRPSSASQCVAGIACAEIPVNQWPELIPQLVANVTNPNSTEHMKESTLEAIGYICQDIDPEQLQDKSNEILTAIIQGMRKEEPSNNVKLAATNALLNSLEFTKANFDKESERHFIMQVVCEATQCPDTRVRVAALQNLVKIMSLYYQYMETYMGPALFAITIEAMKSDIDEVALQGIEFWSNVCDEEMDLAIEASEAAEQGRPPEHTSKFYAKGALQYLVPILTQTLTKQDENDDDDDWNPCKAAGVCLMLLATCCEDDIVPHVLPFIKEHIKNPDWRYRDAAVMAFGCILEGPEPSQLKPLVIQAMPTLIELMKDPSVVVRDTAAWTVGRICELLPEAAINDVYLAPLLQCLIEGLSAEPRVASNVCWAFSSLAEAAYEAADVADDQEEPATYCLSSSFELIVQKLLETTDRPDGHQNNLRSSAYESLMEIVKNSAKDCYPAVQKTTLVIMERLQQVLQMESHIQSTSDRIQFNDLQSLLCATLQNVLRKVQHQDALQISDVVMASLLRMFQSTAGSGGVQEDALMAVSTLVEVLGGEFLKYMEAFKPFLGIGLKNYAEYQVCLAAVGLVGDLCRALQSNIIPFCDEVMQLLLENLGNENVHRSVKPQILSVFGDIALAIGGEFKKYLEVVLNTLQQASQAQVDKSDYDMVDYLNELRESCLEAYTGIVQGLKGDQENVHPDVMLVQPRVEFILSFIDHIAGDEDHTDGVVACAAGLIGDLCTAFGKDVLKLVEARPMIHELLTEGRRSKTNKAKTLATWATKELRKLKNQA

SMILES	EPAC2 antagonist	EPAC1 ag	Rango dissoc inh	EPAC1 antagonist	Rango complex inh	EPAC2 agonist
CC(C)NC(=O)C1(C)CN(S(C)(=O)=O)CC(=O)N1C1CC1 (stereo unspecified)	-	-	.	-	.	-
CC(=O)c1cc(C#N)c(N(C)Cc2ccccc2)nc1C	50µM	-	-	-	-	-
COC(=O)c1cc(C#N)c(N(C)Cc2ccccc2)nc1C	-	-	-	-	-	-
O=C(Nc1cccs1)Nc1ccccc1Cl	22µM	-	-	-	-	-
CSc1nc(N(C)CCO)c2sc3nc(-c4ccco4)c4c(c3c2n1)CCC4	-	-	-	45µM	?	-
O=C1Cc2ccccc2C(=O)N1	?	-	.	56µM	.	-
O=C(NCc1nnc(SCC(=O)N2CCN(c3ccccc3)CC2)o1)c1ccc(F)cc1	-	-	-	-	-	-
CCCCCCCCCCCCCCCC[N+](C)(C)CCN(Cc1ccc(OC)cc1)c1ncccn1	-	-	-	?	65µM	-
COc1ccccc1NC(=O)c1sc2nc(Cc3ccccc3)cc(C(F)(F)F)c2c1N	79µM	-	?	-	?	-
N#Cc1c(C(F)(F)F)cc(-c2ccco2)nc1SCc1ccccn1	-	-	-	-	37µM	-
O=C1C=CC(c2ccccc2)(c2ccccc2)CC1	45µM	-	-	-	-	-
CCc1ccc(NC(=O)CC2C(=O)NCCN2C(=O)c2ccccc2OC)cc1 (stereo unspecified)	-	-	-	-	-	-
CC1=NN(c2ccccc2)C(=O)/C1=C\c1ccc(Oc2ccc([N+](=O)[O-])cc2[N+](=O)[O-])cc1	-	-	-	79µM	-	-
OCC1(Cc2ccc(F)cc2)CCCN(CCc2ccccc2)C1 (stereo unspecified)	-	-	-	-	-	-
O=C(CSc1nc2nc(-c3cccs3)cc(C(F)(F)F)c2c(=O)[nH]1)Nc1ccc(F)c(F)c1	-	-	-	79µM	-	-
CC1(C(=O)NS(=O)(=O)c2ccc(Cl)cc2)CCN1C(=O)CCC1CCCC1 (stereo unspecified)	-	-	.	-	.	-
Cc1cccc(N(Cc2ccccc2)C(=O)CSC(C)C(=O)Nc2cc(C)on2)c1 (stereo unspecified)	-	112µM	-	-	-	-
CCCC[C@@H]1C[C@H]1[C@@H](NC(=O)c1ccco1)c1ccc(Cl)cc1	8.9µM	-	-	-	-	-
NC(=S)N/N=C/c1cccc(O)c1O	-	-	-	-	-	-
Cc1cc(/C=N/NC(N)=S)c(O)c(/C=N/NC(N)=S)c1	-	40µM	?	-	?	?
O=C(CCC1CCCC1)Nc1ccc([N+](=O)[O-])cn1	-	112µM	-	-	-	-
O=C(NCCN1CCC(n2c(=O)[nH]c3ccccc32)CC1)c1ccc(Cl)c(Cl)c1	-	-	.	-	.	-
Cn1c(=O)c(/C=C/c2ccc(F)cc2)nc2ccccc21	-	-	?	-	?	-
O=c1c(/C=C(\O)c2ccc(F)cc2)nc2ccccc2n1-c1ccccc1	-	-	?	-	?	100µM
CCCC(=O)Nc1ncnc2c1ncn2[C@@H]1O[C@@H]2COP(=O)(O)O[C@H]2[C@H]1OC(=O)CCC	-	-	-	-	-	-
SMILES	EPAC2 antagonist	EPAC1 ag	Rango dissoc inh	EPAC1 antagonist	Rango complex inh	EPAC2 agonist
Nc1ncnc2c1nc(Sc1ccc(Cl)cc1)n2[C@@H]1O[C@@H]2COP(=O)(O)O[C@H]2[C@H]1O	2.8µM	?	-	?	-	?
CC(CCC(=O)O)C1CC[C@H]2C3CCC4CC(=O)CCC4(C)[C@H]3CC(=O)C12C (stereo partly specified)	-	-	-	-	-	-
CCc1nc2c(OCc3cc(Cl)cc(Cl)c3)cccn2c1N(C=O)Cc1ccccc1	-	-	.	-	.	-
Cc1ccc(-c2cn3nc(-c4ccccc4)c(-c4ccccc4)nc3n2)cc1	-	-	?	-	?	100µM
Cc1cccc(C)c1NC(=O)C1(C)CN(S(C)(=O)=O)CC(=O)N1CCc1ccc(O)cc1 (stereo unspecified)	-	-	.	-	.	-
CC1(C)CC(=O)CC(=NCC(=O)O)C1	-	-	26µM	-	?	-
CC1(C)CC(=O)C/C(=N\NC(=S)NCc2ccccc2)C1	-	-	-	-	-	-
COc1ccc(CCNC(=O)c2cc3cc(Cl)ccc3nc2N)cc1OC	-	-	.	-	.	-
CC(C)(C)NC(=O)C(c1ccnc2ccccc12)n1c(=O)c(-c2cc3ccccc3[nH]2)nc2ccccc21 (stereo unspecified)	-	-	.	-	.	-
O=S(=O)(c1cc(O)ccc1O)c1cccc2c(S(=O)(=O)c3cc(O)ccc3O)cccc12	-	-	-	79µM	?	-
CCCS(=O)(=O)NC(=O)C1(C)CCCN(C(=O)c2cc(C)nn2C(C)(C)C)C1 (stereo unspecified)	-	-	.	-	.	-
O=c1oc(/C=C/c2ccc([N+](=O)[O-])s2)nc2ccccc12	-	-	9.2µM	-	?	-
O=c1[nH]ncc(N/N=C\c2cccs2)c1Cl	-	-	-	?	-	-
Cc1ccsc1C=Nc1ccc(O)cc1	50µM	-	-	35µM	-	-
CCOc1ccc(N=C2SCCCN2C(=O)c2c(CC)noc2C)cc1	-	-	-	-	-	-
CCc1noc(C)c1C(=O)N1CCCSC1=Nc1ccccc1Cl	50µM	-	-	-	-	-
Nc1c(Cl)ncnc1N/N=C/c1ccc(O)cc1	28µM	-	-	?	-	-
Cc1ccnc(NS(=O)(=O)c2ccc(NC(=O)Cc3c(F)cccc3Cl)cc2)n1	?	-	-	-	-	-
O=C(Cc1c(Cl)cccc1Cl)Nc1ccc(S(=O)(=O)Nc2ncccn2)cc1	10µM	-	-	-	?	-
NS(=O)(=O)c1ccc(NC(=O)Cc2c(F)cccc2Cl)cc1	28µM	-	-	-	-	-

Compound activity: PubChem, National Center for Advancing Translational Sciences (NCATS)
